The numbers were not newly measured in PubChem BioAssay AID977611, which cites them from elsewhere.

Common to all, as to experiment: PubChem AID 977611
Series [1] has as its target 3-OXOACYL-[ACYL-CARRIER-PROTEIN] SYNTHASE 1. Particulars: PDB protein-ligand complexes, literature Kd; protein: 3-OXOACYL-[ACYL-CARRIER-PROTEIN] SYNTHASE 1; PDB entry 2VB8.
Series [2] concerns the target beta-ketoacyl-[acyl carrier protein] synthase i. Particulars: PDB protein-ligand complexes, literature Kd; protein: beta-ketoacyl-[acyl carrier protein] synthase i; PDB entry 1FJ4.
The next series has as its target apolipoprotein. The following applies: PDB protein-ligand complexes, literature Kd; protein: apolipoprotein; PDB entry 3KIV.
In series [3] the target is adenine-n6-dna-methyltransferase taqi. Particulars: PDB protein-ligand complexes, literature Kd; protein: adenine-n6-dna-methyltransferase taqi; PDB entry 1AQJ.
Series [4] concerns the target ribulose-1,5 bisphosphate carboxylase/oxygenase. The following applies: PDB protein-ligand complexes, literature Kd; protein: ribulose-1,5 bisphosphate carboxylase/oxygenase; PDB entry 2H2J.
The target of the next series is 2Q8H A. Particulars: PDB protein-ligand complexes, literature Kd; PDB entry 2Q8H.
The next series concerns the target streptavidin. The following applies: PDB protein-ligand complexes, literature Kd; protein: streptavidin; PDB entry 2IZL.
The next series addresses adam 17. The following applies: PDB protein-ligand complexes, literature Kd; protein: adam 17; PDB entry 2FV5.
Another series addresses malectin. The following applies: PDB protein-ligand complexes, literature Kd; protein: malectin; PDB entry 2K46.
For series [5], the target named is Estrogen-related receptor ?
The following applies: PDB protein-ligand complexes, literature Kd; protein: Estrogen-related receptor ?; PDB entry 2P7A.

Another series concerns the target citrate synthase. Particulars: PDB protein-ligand complexes, literature Kd; protein: citrate synthase; PDB entry 4CTS.
In series [6] the target is Macrophage metalloelastase(F171D). Particulars: PDB protein-ligand complexes, literature Kd; protein: Macrophage metalloelastase(F171D); PDB entry 1RMZ.
Series [7] addresses macrophage metalloelastase (mmp-12). Particulars: PDB protein-ligand complexes, literature Kd; protein: macrophage metalloelastase (mmp-12); PDB entry 1Z3J.
In a further series the target is Human dUTPase. Particulars: PDB protein-ligand complexes, literature Kd; protein: Human dUTPase; PDB entry 2HQU.
For a further series, the target named is mycobacterial dUTPase. Particulars: PDB protein-ligand complexes, literature Kd; protein: mycobacterial dUTPase; PDB entry 2PY4.
Series [8] concerns the target STEROID DELTA-ISOMERASE(P39A). Particulars: PDB protein-ligand complexes, literature Kd; protein: STEROID DELTA-ISOMERASE(P39A); PDB entry 1OGZ.
Another series deals with immunoglobulin. The following applies: PDB protein-ligand complexes, literature Kd; protein: immunoglobulin; PDB entry 2PCP.
Series [9] has as its target protease retropepsin(D30N). Particulars: PDB protein-ligand complexes, literature Kd; protein: protease retropepsin(D30N); PDB entry 2Q64.
Series [10] has as its target protease retropepsin(D30N/A71V). The following applies: PDB protein-ligand complexes, literature Kd; protein: protease retropepsin(D30N/A71V); PDB entry 2PYN.
Series [11] deals with protease retropepsin(D30N/L90M). The following applies: PDB protein-ligand complexes, literature Kd; protein: protease retropepsin(D30N/L90M); PDB entry 2Q63.
In series [12] the target is protease retropepsin(D30N/N88D). The following applies: PDB protein-ligand complexes, literature Kd; protein: protease retropepsin(D30N/N88D); PDB entry 2PYM.
Series [13] deals with Protein kinase C alpha type, C2 domain. Particulars: PDB protein-ligand complexes, literature Kd; protein: Protein kinase C alpha type, C2 domain; PDB entry 3GPE.
The target in series [14] is Rho GTPase-activating protein 9. The following applies: PDB protein-ligand complexes, literature Kd; protein: Rho GTPase-activating protein 9; PDB entry 2P0D.
The next series has as its target beta-spectrin. The following applies: PDB protein-ligand complexes, literature Kd; protein: beta-spectrin; PDB entry 1BTN.
In a further series the target is phospholipase C delta-1. Particulars: PDB protein-ligand complexes, literature Kd; protein: phospholipase C delta-1; PDB entry 1MAI.
The next series concerns the target E. coli dUTPase. The following applies: PDB protein-ligand complexes, literature Kd; protein: E. coli dUTPase; PDB entry 2HR6.
Another series addresses 1RYF A. The following applies: PDB protein-ligand complexes, literature Kd; PDB entry 1RYF.
The target of series [15] is adp-ribosylation factor-like protein 3. Particulars: PDB protein-ligand complexes, literature Kd; protein: adp-ribosylation factor-like protein 3; PDB entry 1FZQ.
A further series addresses elongation factor 2. Particulars: PDB protein-ligand complexes, literature Kd; protein: elongation factor 2; PDB entry 1U2R.
The target in a further series is elongation factor g. Particulars: PDB protein-ligand complexes, literature Kd; protein: elongation factor g; PDB entry 1DAR.
The target of series [16] is elongation factor tu (ef-tu). The following applies: PDB protein-ligand complexes, literature Kd; protein: elongation factor tu (ef-tu); PDB entry 1D2E.
The target in series [17] is eukaryotic peptide chain release factor gtp. The following applies: PDB protein-ligand complexes, literature Kd; protein: eukaryotic peptide chain release factor gtp; PDB entry 1R5N.
Series [18] deals with guanine nucleotide-binding protein g(i), alpha-. The following applies: PDB protein-ligand complexes, literature Kd; protein: guanine nucleotide-binding protein g(i), alpha-; PDB entry 2G83.
The target in series [19] is interferon-inducible gtpase. The following applies: PDB protein-ligand complexes, literature Kd, protein: interferon-inducible gtpase.
For series [20], the target named is CORTICOSTEROID-BINDING GLOBULIN
The following applies: PDB protein-ligand complexes, literature Kd; protein: CORTICOSTEROID-BINDING GLOBULIN; PDB entry 2V95.

The target in series [21] is Cellular retinoic acid-binding protein 2. The following applies: PDB protein-ligand complexes, literature Kd; protein: Cellular retinoic acid-binding protein 2; PDB entry 2G79.
Series [22] deals with human estrogen-related receptor c (ERR?). The following applies: PDB protein-ligand complexes, literature Kd; protein: human estrogen-related receptor c (ERR?); PDB entry 2E2R.
The target of the next series is Mevalonate kinase. Particulars: PDB protein-ligand complexes, literature Kd; protein: Mevalonate kinase; PDB entry 2OI2.
The target in series [23] is Mitogen-activated protein kinase 1. Particulars: PDB protein-ligand complexes, literature Kd; protein: Mitogen-activated protein kinase 1; PDB entry 3TEI.
The next series deals with Pantothenate kinase. Particulars: PDB protein-ligand complexes, literature Kd; protein: Pantothenate kinase; PDB entry 2EWS.
The target of series [24] is Tyrosine-protein kinase SYK. The following applies: PDB protein-ligand complexes, literature Kd, protein: Tyrosine-protein kinase SYK.
Series [25] concerns the target potassium-transporting atpase b chain. Particulars: PDB protein-ligand complexes, literature Kd; protein: potassium-transporting atpase b chain; PDB entry 2A29.

`C=C/C(C)=C/[C@@]1(C)SC(=O)C(C)=C1O`: the Kd (commonly the equilibrium constant for the complex coming apart) in series [1] is 25 µM; in series [2], 26 µM.
On to `NCCCCCC(=O)O`, for which, at apolipoprotein, the Kd is 20 µM.
Take `Nc1ncnc2c1ncn2[C@@H]1O[C@H](C[C@@H](N)CC[C@H](N)C(=O)O)[C@@H](O)[C@H]1O`: the Kd in [3] is 0.34 µM; in series [4], 4.2 µM.
On to `O=C(O)C(Cl)Cl`, for which, on 2Q8H A, the Kd was 1000 µM.
Regarding `NC1=N[C@H]2[C@H](CS[C@H]2CCCCC(=O)O)N1`, the dissociation constant (Kd) on streptavidin is 1 µM.
Take `Cc1cc(COc2ccc([C@]3(C)CCN([C@H](C)C(=O)NO)C3=O)cc2)c2ccccc2n1`: the Kd on adam 17 is < 2 pM.
`OC[C@H]1O[C@H](O[C@@H]2[C@@H](O)[C@@H](O)O[C@H](CO)[C@H]2O)[C@H](O)[C@@H](O)[C@@H]1O`: at malectin, the Kd is 26.3 µM.
Consider `Cc1cc(O)ccc1Cl`, for which the Kd in series [5] is 0.788 µM.
As to `O=C(O)CC(=O)C(=O)O`, the Kd on citrate synthase was < 10 µM.
As to `COc1ccc(S(=O)(=O)N(CC(=O)NO)CC(C)C)cc1`, the equilibrium dissociation constant (Kd) in [6] and in series [7] was 0.01 µM each time.
Consider `O=c1ccn([C@H]2C[C@H](O)[C@@H](COP(=O)(O)NP(=O)(O)OP(=O)(O)O)O2)c(=O)[nH]1`, for which the Kd on Human dUTPase is 7.2 µM; at mycobacterial dUTPase, 0.2 µM.
Regarding `C[C@]12CCc3c(ccc4cc(O)ccc34)[C@@H]1CCC2=O`, in series [8], the dissociation constant (Kd) is 1.4 µM.
With `c1ccc(C2(N3CCCCC3)CCCCC2)cc1`, the Kd at immunoglobulin is 0.002 µM.
Regarding `Cc1c(O)cccc1C(=O)N[C@@H](CSc1ccccc1)[C@H](O)CN1C[C@H]2CCCC[C@H]2C[C@H]1C(=O)NC(C)(C)C`, the Kd was 0.003 µM in series [9], 0.027 µM in series [10], 0.066 µM in series [11] and 0.15 µM in series [12].
In the case of `O=P(O)(O)O[C@@H]1[C@H](O)[C@H](O)[C@@H](OP(=O)(O)O)[C@H](OP(=O)(O)O)[C@H]1O`, the Kd in series [13] was 1.8 µM; in [14] it was 0.1 µM; at beta-spectrin, 40 µM; on phospholipase C delta-1, 0.21 µM.
For the compound `O=c1ccn([C@H]2C[C@H](O)[C@@H](COP(=O)(O)OP(=O)(O)O)O2)c(=O)[nH]1`, at E. coli dUTPase, the dissociation constant Kd is 15 µM.
`Nc1nc2c(ncn2[C@@H]2O[C@H](COP(=O)(O)OP(=O)(O)O)[C@@H](O)[C@H]2O)c(=O)[nH]1`: the Kd is 0.0016 µM on 1RYF A; 0.024 µM in series [15]; 3.9 µM at elongation factor 2; 11 µM on elongation factor g; 1 µM in series [16]; 3.8 µM in [17]. Moreover, the Kd was 1.2 µM in series [18], 0.64 µM in [19] (PDB entry 1TPZ) and 0.64 µM in series [19] (PDB entry 1TQ4).
For `C[C@]12CCC(=O)C=C1CC[C@@H]1[C@@H]2[C@@H](O)C[C@@]2(C)[C@H]1CC[C@]2(O)C(=O)CO`, the Kd in [20] was 0.005 µM.
For the compound `CC1=C(/C=C/C(C)=C/C=C/C(C)=C/C=O)C(C)(C)CCC1`, the dissociation constant (Kd) in series [21] was 0.12 µM.
Consider `CC(C)(c1ccc(O)cc1)c1ccc(O)cc1`, for which the equilibrium dissociation constant (Kd) in series [22] is 0.0055 µM.
Turning to `C[C@@](O)(CCOP(=O)(O)OP(=O)(O)O)CC(=O)O`, the Kd at Mevalonate kinase was 0.5 µM.
With `Nc1ncnc2c1ncn2[C@@H]1O[C@H](COP(=O)(O)OP(=O)(O)NP(=O)(O)O)[C@@H](O)[C@H]1O`, the Kd was 0.5 µM in [23]; 0.24 µM at Pantothenate kinase; 520 µM in series [24] (PDB entry 4FL1); 220 µM in series [24] (PDB entry 4FL2); 150 µM in series [24] (PDB entry 4FL3); 1400 µM in [25].
